This assay addresses human MAO-A (Homo sapiens, UniProt P21397). Kind of assay: MAO-Glo bioluminescent enzymatic assay, MAO-A. Type of assay: biochemical. The note with it: MAO-A inhibition mean IC50 value, human recombinant MAO-A.

Sequences of proteins named here, by UniProt entry; tags and fusion partners are left off.
UniProt P21397, whole entry: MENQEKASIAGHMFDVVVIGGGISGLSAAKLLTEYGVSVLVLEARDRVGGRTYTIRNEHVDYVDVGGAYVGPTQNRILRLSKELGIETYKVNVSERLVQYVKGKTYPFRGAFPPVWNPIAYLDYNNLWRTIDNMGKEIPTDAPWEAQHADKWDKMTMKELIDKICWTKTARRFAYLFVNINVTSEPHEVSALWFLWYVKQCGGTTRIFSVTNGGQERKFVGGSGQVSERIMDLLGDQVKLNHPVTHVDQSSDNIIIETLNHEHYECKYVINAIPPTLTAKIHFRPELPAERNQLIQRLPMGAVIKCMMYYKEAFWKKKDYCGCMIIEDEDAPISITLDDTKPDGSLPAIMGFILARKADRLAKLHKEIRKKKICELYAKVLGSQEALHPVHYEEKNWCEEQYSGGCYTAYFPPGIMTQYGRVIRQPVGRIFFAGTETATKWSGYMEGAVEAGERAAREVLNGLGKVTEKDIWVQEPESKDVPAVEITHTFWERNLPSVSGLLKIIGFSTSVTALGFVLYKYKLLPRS

SMILES strings stand for the structures.

As to `c1ccc2c(c1)[nH]c1cnccc12` [norharman], the IC50 was determined as 1.7 µM.
